According to article PMC10532679 (Life, 2023):

Target: wild-type H6-PKA-Cα, untreated (alpha isoform of the catalytic subunit of cAMP-dependent protein kinase) (murine, UniProt P05132 2-351)
Test: SPR; OpenSPR-XT; CREBtide coupled to a carboxyl sensor; PKA-Cα flowed at 75 µL/min; 1X HBS-P+, 10 mM MgCl2, 0.01% NP-40, 0.5% BSA, 10 µM AMP-PNP, pH 7.4; kinetics analysis; apparent
Conditions: both partners purified

B1: CREBtide (peptide)
peptide: KRREILSRRPSYR
notes: Coupled by EDC/sulfo-NHS to the carboxyl sensor in SPR; source: bought: Alfa Aesar
**Q.** With B1 as the binder, how does the koff read?
**A.** 0.0163 ± 0.25 s⁻¹

**Q.** And the kon?
**A.** 6710 ± 1.21 M⁻¹ s⁻¹
